This passage reports IC50 results from patent publication US9688676B2, “Tyrosine kinase inhibitors” (PRINCIPIA BIOPHARMA INC., priority 2015, dated 2017).

Protein sequences, listed by entry. Tags and fused reporters are not part of them. Lines headed by an entry give the natural chain unless they say otherwise; changes in a name come on top.
UniProt Q06187: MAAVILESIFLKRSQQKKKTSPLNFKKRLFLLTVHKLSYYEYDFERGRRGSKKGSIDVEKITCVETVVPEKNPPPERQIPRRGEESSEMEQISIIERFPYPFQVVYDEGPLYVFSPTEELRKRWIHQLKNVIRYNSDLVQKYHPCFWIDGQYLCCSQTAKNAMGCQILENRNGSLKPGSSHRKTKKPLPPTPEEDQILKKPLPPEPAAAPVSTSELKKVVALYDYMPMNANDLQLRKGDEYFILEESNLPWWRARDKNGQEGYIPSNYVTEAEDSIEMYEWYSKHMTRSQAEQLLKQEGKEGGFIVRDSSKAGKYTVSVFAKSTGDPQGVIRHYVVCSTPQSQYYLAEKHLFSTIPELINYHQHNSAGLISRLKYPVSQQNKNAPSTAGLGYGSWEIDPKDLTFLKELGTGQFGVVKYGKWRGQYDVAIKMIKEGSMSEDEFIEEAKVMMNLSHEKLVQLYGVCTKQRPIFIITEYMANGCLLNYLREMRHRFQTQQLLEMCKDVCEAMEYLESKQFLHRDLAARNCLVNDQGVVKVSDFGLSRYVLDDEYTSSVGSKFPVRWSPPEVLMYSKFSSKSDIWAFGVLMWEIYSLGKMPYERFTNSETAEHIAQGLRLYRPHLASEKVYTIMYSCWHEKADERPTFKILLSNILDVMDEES

In this test the target is BTK (Homo sapiens (Human), UniProt Q06187). As to the kind of experiment: BTK enzymatic activity assay (Caliper-based kinase assay). It counts as biochemical. As to conditions: human recombinant BTK 0.5 nM, ATP 16 μM, 3 h room temperature. Here is the method:
A Caliper-based kinase assay (Caliper Life Sciences, Hopkinton, Mass.) was used to measure inhibition of BTK kinase activity of a compound of the present disclosure. […] The reaction was then terminated with EDTA, final concentration 20 mM and the phosphorylated reaction product was quantified on a Caliper Desktop Profiler (Caliper LabChip 3000). […] This value is presented as the IC50.

On to `CC1(C=C(C#N)C(=O)N2CCC[C@@H](n3c(=O)n(-c4ccc(Oc5ccccc5)cc4)c4c(N)nccc43)C2)CC1` [Compound 48, (R)-2-(3-(4-amino-2-oxo-3-(4-phenoxyphenyl)-2,3-dihydro-1H-imidazo[4,5-c]pyridin-1-yl)piperidine-1-carbonyl)-3-(1-methylcyclopropyl)acrylonitrile], for which the IC50 amounted to 9 nM.

One may read the IC50 as the concentration that gives 50% inhibition.
